## Measured logP (octanol/water) values of organic chemicals

Data: OPERA 2.9 data sets, kmansouri/OPERA on GitHub.

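These are experimental values that the OPERA curators gathered from public databases to train and test their QSAR models. A listed value is a point estimate from one report or more. How each value was measured is not recorded, so precision varies. A value may pool stereoisomers or salt forms, and the file does not say which form was measured. Unmarked limits or estimates from the upstream databases cannot be ruled out.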

The octanol-water partition coefficient is given as log10; larger values mean a more lipophilic compound.
"via" names the databases from which the curators took the value.

- Nc1ncnc2c1ncn2C1OC(COP(=O)(O)OP(=O)([O-])OP(=O)([O-])O)C(O)C1O.[Na+].[Na+] (stereo unspecified): logP (octanol/water) -2.66 (via eChemPortal)
- CCN(CC)c1cccc(O)c1: logP (octanol/water) 2.5 (via eChemPortal)
- CC(=O)[O-].CCN(CC)c1ccc(/C=C/C2=[N+](C)c3ccccc3C2(C)C)cc1: logP (octanol/water) -2.4 (via eChemPortal)
- Cc1ccc(NCCO)cc1O: logP (octanol/water) 0.772 (via eChemPortal)
- C=Cc1ccc(O)cc1: logP (octanol/water) 2.3 (via eChemPortal)
- CC(C)(C)C(N)C(=O)O (racemic): logP (octanol/water) -1.77 (via OCHEM)
- Cc1ccc(C(N)=O)cc1N: logP (octanol/water) -0.2 (via eChemPortal)
- COC(=O)[C@@H]1CC2=CC(=O)CC[C@]2(C)[C@H]2CC[C@@]3(C)[C@@H](CC[C@@]34CCC(=O)O4)[C@H]12: logP (octanol/water) 1.94 (via OCHEM)
- CC1=NS(=O)(=O)c2cccnc2N1C: logP (octanol/water) -0.05 (via OCHEM)
- CCOCCOCCOC: logP (octanol/water) 0.365 (via eChemPortal)
- Cc1cc(O)c2ccccc2c1O: logP (octanol/water) 2.76 (via OCHEM)
- CC(C)CCCCCCCOCCCNCCCN: logP (octanol/water) 2.7 (via eChemPortal)
- Clc1cc(-c2c(Cl)ccc(Cl)c2Cl)c(Cl)c(Cl)c1Cl: logP (octanol/water) 7.11 (via OCHEM)
- O=S(=O)([O-])c1ccc(Nc2nc(Cl)nc(Cl)n2)cc1.[Na+]: logP (octanol/water) -0.48 (via eChemPortal)
- Cc1ccc(S(=O)(=O)[N-]Cl)cc1.[Na+]: logP (octanol/water) -1.3 (via eChemPortal)
- CC(C)CCOC(=O)c1cc(=O)[nH]c(=O)[nH]1: logP (octanol/water) 1.48 (via OCHEM)
- CC(CC(N)=O)n1nnc2ccccc21 (stereo unspecified): logP (octanol/water) 0.75 (via OCHEM)
- O=C(O)C(=O)[C@@H](O)[C@H](O)[C@@H](O)CO: logP (octanol/water) -3.08 (via eChemPortal)
- O=C(O)Cc1ccccc1Nc1c(Cl)cccc1I: logP (octanol/water) 4.8 (via OCHEM)
- N[C@@H](CC(=O)N1CCn2c(nnc2C(F)(F)F)C1)Cc1cc(F)c(F)cc1F: logP (octanol/water) 1.5 (via PubChem)
- O=C([O-])c1cc(/N=N/c2ccc(/N=N/c3ccc(O)c(C(=O)[O-])c3)c(S(=O)(=O)[O-])c2)ccc1O.[Na+].[Na+].[Na+]: logP (octanol/water) -4.45 (via eChemPortal)
- CN1CCN(N)CC1: logP (octanol/water) -1.61 (via eChemPortal)
- CNC(=O)c1cc(Oc2ccc(NC(=O)Nc3ccc(Cl)c(C(F)(F)F)c3)cc2)ccn1: logP (octanol/water) 3.55 (via PubChem, eChemPortal)
- Cl.NCC1CN(c2ccc(N3CCOCC3=O)cc2)C(=O)O1 (stereo unspecified): logP (octanol/water) -0.1 (via eChemPortal)
- C[S+](C)CCC(N)C(=O)O.[Cl-]: logP (octanol/water) 0.28 (via OCHEM)
- CCCCC(F)(F)C(=O)CC[C@H]1[C@H](O)CC(=O)[C@@H]1CCCCCCC(=O)O: logP (octanol/water) 4.3 (via PubChem)
- Nc1ccc2cc(S(=O)(=O)[O-])cc(O)c2c1/N=N/c1ccc(Nc2nc(NCCS(=O)(=O)[O-])nc(N(CCO)CCO)n2)cc1S(=O)(=O)[O-].[Na+].[Na+].[Na+]: logP (octanol/water) -2.81 (via eChemPortal)
- CCn1c(O)c(/N=N/c2cc(Nc3nc(Cl)nc(Nc4ccc(S(=O)(=O)[O-])c(Nc5nc(N)nc(Cl)n5)c4)n3)c(S(=O)(=O)[O-])cc2S(=O)(=O)[O-])c(C)c(C(N)=O)c1=O.[Na+].[Na+].[Na+]: logP (octanol/water) -2.84 (via eChemPortal)
- OC[C@H]1OC(n2cnc3c(=S)cc[nH]c32)[C@H](O)[C@@H]1O (stereo in doubt): logP (octanol/water) -0.6 (via OCHEM)
- Cc1cc(OC(=O)c2ccc(O)cc2)ccc1OC(=O)c1ccc(O)cc1: logP (octanol/water) 2.1 (via eChemPortal)
- S=C=Nc1ccc(Oc2ccccc2)cc1: logP (octanol/water) 4.75 (via OCHEM)
- CSSSC: logP (octanol/water) 1.94 (via PubChem)
- CC(C)OC(=O)[C@@H]1CC2=CC(=O)CC[C@]2(C)[C@H]2CC[C@@]3(C)[C@@H](CC[C@@]34CCC(=O)O4)[C@H]12: logP (octanol/water) 2.82 (via OCHEM)
- CC(=O)Oc1cccc(C(C)=O)c1: logP (octanol/water) 1.4 (via eChemPortal)
- COC(=O)/C=C(\C)N[C@@H](C(=O)[O-])C(C)C.[K+]: logP (octanol/water) -2.23 (via eChemPortal)
- N#Cc1ccc(O)c(O)c1: logP (octanol/water) 1.3 (via eChemPortal)
- COCCOCCOCCOC: logP (octanol/water) -0.48 (via PubChem, eChemPortal)
- OCNc1ccccc1: logP (octanol/water) -0.22 (via OCHEM)
- N[C@@H](Cc1ccc(O)c(Cl)c1)C(=O)O: logP (octanol/water) -0.89 (via OCHEM)
- FC(F)(F)C(F)(F)C(F)(F)C(F)(F)C(F)(F)C(F)(F)F: logP (octanol/water) 4.5 (via eChemPortal)
- CNS(=O)(=O)c1ccc([O-])c(/N=N/c2c([O-])ccc3cccc(NC(C)=O)c23)c1.CNS(=O)(=O)c1ccc([O-])c(/N=N/c2c([O-])ccc3cccc(NC(C)=O)c23)c1.[Cr+3].[Na+]: logP (octanol/water) -0.39 (via eChemPortal)
- N=C(NO)c1ccccc1: logP (octanol/water) 1.48 (via eChemPortal)
- N#CCCOCCN(CCC#N)c1ccc(N=Nc2ccc([N+](=O)[O-])cc2)cc1: logP (octanol/water) 0.952 (via eChemPortal)
- CC(=O)NCc1ccc([N+](=O)[O-])cc1: logP (octanol/water) 0.91 (via OCHEM)